This is a sample that favours compounds with a hit; in the whole collection about 2.1% have one here.
PDI inh = inhibitors of human PDI, primary screen, biochemical, turbidity, single point, plate reader. PDI insulin aggregation turbidity, A650, 90 min. inhibition, % at 10 µM. 0.052% of 350,000 active;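 active = mean inhibition across replicates of 30% or more, whatever share of single replicates reach that level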
ERp5 inh = inhibitors of ERp5-driven insulin aggregation, primary screen, biochemical, turbidity, absorbance 650 nm, single point; inhibition, % at 9.99 µM; 0.05% of 350,000 active; Protein disulfide-isomerase A6 (Homo sapiens), Q15084; 90 min;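 active = mean replicate inhibition above about 25%, with every replicate also reaching it, limit read from the data, passing the limit was not always enough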
Rev-erbA mod = modulators of Rev-erb alpha DNA binding, primary screen, biochemical, FITC-DNA, fluorescence polarization, uHTS | 0.79% of 370,000 active | Rev-erbα–FITC-DNA binding, 90 min | Nuclear receptor subfamily 1 group D member 1 (Homo sapiens), P20393 | activity, % at 10 µM;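 active = activity above about 14%, limit read from the data; passing the limit was not always enough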;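 also: 0% = DMSO wells with 35 nM protein and 100% = DMSO wells with 750 nM protein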
GSIS activator = GLuc luminescence reporter in INS-1E cells, primary screen for activators of glucose-dependent secretion of insulin; INS-1E GLuc reporter insulin secretion, 2-3 h; activation, % at 16.6 µM; 0.61% of 370,000 active; AID 743287, 2014;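 active = lowest replicate activation of at least 40%, so every replicate reaches that level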;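 also: 0% = median of neutral control wells and 100% = median of IBMX positive control wells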
SMARCA2 activ = SMARCA2 (BRM) function activators, primary screen, cell-based, luminescence, high throughput; 1% of 370,000 active; activation, % at 9.1 µM; AID 652017, 2013; MG213 cells, MMTV-luciferase reporter, dexamethasone, overnight; in the data active = activation above about 7.8%;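 also: 0% = vehicle wells and 100% = reference activator wells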
UUG fidelity = alters start codon recognition fidelity in yeast. 350,000 tested, 0.13% active. activity score, % at 18.7 µM. S. cerevisiae UUG-firefly luciferase reporter, luminescence/redox ratio;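 active = replicate mean at a twofold rise or more, about +100% in these data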;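 also: firefly luciferase made from a UUG start codon reports start codon fidelity; reporter light over untreated wells divided by growth signal over untreated wells; some hits fall short of that in this replicate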
Active calls of the source: *.

Start of the listing, in advance (2 entries):
Cc1ccc(S(=O)(=O)N(C)C[C@@H]2Oc3c(NC(=O)NC(C)C)cccc3C(=O)N([C@@H](C)CO)C[C@@H]2C)cc1 was read as ERp5 inh 1, GSIS activator 11 and UUG fidelity 7.
CN1[C@@H]2Cn3c(ccc(-c4cccc(F)c4)c3=O)[C@H]1[C@@H](C(=O)Nc1nccs1)[C@@H]2CO was read as ERp5 inh 0 and GSIS activator 9.

The list itself, repeating the preview:
Cc1ccc(S(=O)(=O)N(C)C[C@@H]2Oc3c(NC(=O)NC(C)C)cccc3C(=O)N([C@@H](C)CO)C[C@@H]2C)cc1 was read as ERp5 inh 1, GSIS activator 11 and UUG fidelity 7.
CN1[C@@H]2Cn3c(ccc(-c4cccc(F)c4)c3=O)[C@H]1[C@@H](C(=O)Nc1nccs1)[C@@H]2CO was read as ERp5 inh 0 and GSIS activator 9.
Screening C[C@@H]1CN(C)C(=O)c2cccc(N(C)C)c2O[C@@H]1CN(C)C(=O)OC(C)(C)C returned GSIS activator 0.
For OC(CNCCc1ccc(C(F)(F)F)cc1)COC(c1ccccc1)c1ccccc1 (stereo not drawn) the results were PDI inh -4, ERp5 inh 1, Rev-erbA mod 4, GSIS activator 365*, SMARCA2 activ -3 and UUG fidelity -12.
`COc1ccc(-c2ccc(SCC(=O)NCC3CCCO3)nn2)cc1OC` (stereo not drawn) gave PDI inh -1, ERp5 inh 2, Rev-erbA mod -1, GSIS activator 75*, SMARCA2 activ -1 and UUG fidelity -15.
Screening COc1ccc(-c2cc(C(F)(F)F)nc(SCC(=O)NCc3ccco3)n2)cc1OC returned PDI inh -2, Rev-erbA mod 11, SMARCA2 activ 0 and UUG fidelity -5.
O=C(CSc1ccc(-c2ccc(F)cc2)nn1)NCC1CCCO1 (stereo not drawn) was read as PDI inh 7, ERp5 inh 0, Rev-erbA mod -6, GSIS activator -8, SMARCA2 activ 0 and UUG fidelity -7.
`COc1ccc(-c2ccc(SCC(=O)NCc3ccco3)nn2)cc1OC` gave PDI inh -3, Rev-erbA mod -6, GSIS activator 62* and SMARCA2 activ 0.
For C[C@H]1CN([C@@H](C)CO)C(=O)c2cc(C#CCN(C)C)cnc2O[C@@H]1CN(C)S(=O)(=O)c1cn(C)cn1 the results were ERp5 inh -3, GSIS activator 36 and UUG fidelity 2.
CCc1ccc(/C=N/NC(=S)NCCc2ccccc2)cc1 was read as PDI inh 15, Rev-erbA mod -6, GSIS activator 41*, SMARCA2 activ -2 and UUG fidelity -13.
Screening COc1ccc(/C=N/NC(=S)NCCc2ccccc2)cc1 returned PDI inh -2, ERp5 inh 1, Rev-erbA mod 8, GSIS activator 6, SMARCA2 activ -3 and UUG fidelity -15.
For COCC(=O)N(C)C[C@@H]1Oc2ncc(C#CC(C)(C)O)cc2C(=O)N([C@@H](C)CO)C[C@@H]1C the results were ERp5 inh 1 and GSIS activator 17.
`CCOC(=O)C1(C)CCCCN1C(=O)c1cccc(Cl)c1` (stereo not drawn) gave PDI inh 19, ERp5 inh -3, Rev-erbA mod 2, GSIS activator 96*, SMARCA2 activ -2 and UUG fidelity -2.
Screening CCOC(=O)C1(C)CCCCN1C(=O)c1ccc(F)c(C)c1 (stereo not drawn) returned PDI inh 2, ERp5 inh -3, Rev-erbA mod -5, GSIS activator 6, SMARCA2 activ 1 and UUG fidelity -3.
For COc1ccc(CNC(=O)COC(=O)c2cc(C)nc3ccccc23)cc1 the results were PDI inh -5, ERp5 inh 2, Rev-erbA mod 1, GSIS activator 46*, SMARCA2 activ -2 and UUG fidelity -17.
Cc1ccnc(NC(=O)c2ccc(Cl)cc2Cl)n1 was read as ERp5 inh 1, Rev-erbA mod -1, GSIS activator 13 and SMARCA2 activ 0.
`Cc1cc(C)nc(NC(=O)c2ccc(Cl)cc2Cl)n1` gave PDI inh 1, ERp5 inh -12, Rev-erbA mod -3, GSIS activator 68*, SMARCA2 activ 0 and UUG fidelity -1.
For COc1ccc2nc3ccccc3nc2c1NC(=O)c1ccc(Cl)cc1Cl the results were PDI inh -4, Rev-erbA mod -5, GSIS activator 87*, SMARCA2 activ 0 and UUG fidelity 8.
NNc1ncnc2scc(-c3ccc(Cl)cc3)c12 was read as PDI inh 1, ERp5 inh 4, Rev-erbA mod 3, GSIS activator 8, SMARCA2 activ -3 and UUG fidelity -18.
Screening OCCCNc1ncnc2scc(-c3ccc(Cl)cc3)c12 returned PDI inh -41, ERp5 inh -1, Rev-erbA mod 6, GSIS activator 90*, SMARCA2 activ -3 and UUG fidelity -1.
`CO[C@H]1CN(C)C(=O)c2cc(NC(=O)c3cccc(Oc4ccccc4)c3)ccc2OC[C@H](C)NC[C@@H]1C` gave GSIS activator 1.
Cc1cc2nc(-c3ccccc3O)[nH]c2cc1C was read as PDI inh -10, ERp5 inh -3, Rev-erbA mod -9, GSIS activator 40*, SMARCA2 activ 5 and UUG fidelity -11.
For Cc1cc(=O)[nH]c(-c2ccccc2O)n1 the results were PDI inh 2, ERp5 inh 7, Rev-erbA mod 9, GSIS activator 7 and UUG fidelity -1.
C[C@H]1CN(C)C(=O)c2cc(NS(C)(=O)=O)ccc2O[C@@H]1CN(C)S(C)(=O)=O was read as GSIS activator -3.
For O=C(NCCC1CCCCN1S(=O)(=O)c1ccc(F)cc1)C(=O)NCc1cccnc1 (stereo not drawn) the results were PDI inh -6, ERp5 inh 2, Rev-erbA mod -5, GSIS activator 50*, SMARCA2 activ 1 and UUG fidelity -28.
Screening CCC(C)(CC(=O)Nc1nccs1)c1ccccc1 (stereo not drawn) returned PDI inh -5, ERp5 inh 3, Rev-erbA mod 6, GSIS activator 41*, SMARCA2 activ -2 and UUG fidelity -7.
Screening O=C(CCN1C(=O)/C(=C\c2ccccc2)SC1=S)NCCCN1CCOCC1 returned PDI inh 4, ERp5 inh 26*, Rev-erbA mod -7, GSIS activator 18, SMARCA2 activ -4 and UUG fidelity -3.
C[C@@H]1CN([C@@H](C)CO)C(=O)c2cc(C#Cc3cccc(F)c3)cnc2O[C@H]1CN(C)CC1CCCC1 was read as ERp5 inh 6, GSIS activator 2 and UUG fidelity 7.
CC(C)NC(=O)Nc1cccc2c1O[C@H](CN(C)C(=O)OC(C)(C)C)[C@@H](C)CN(C)C2=O was read as GSIS activator 8.

At a glance, part of the list above.
`CO[C@H]1CN(C)C(=O)c2cc(NC(=O)c3cccc(Oc4ccccc4)c3)ccc2OC[C@H](C)NC[C@@H]1C` gave GSIS activator 1.
Cc1cc2nc(-c3ccccc3O)[nH]c2cc1C was read as PDI inh -10, ERp5 inh -3, Rev-erbA mod -9, GSIS activator 40*, SMARCA2 activ 5 and UUG fidelity -11.
